In BindingDB's records for doi:10.1021/jm970815r (Eisai, 1998):

Test: Inhibition of Phosphodiesterase 5 from porcine platelets

- IC50: 54 nM
SMILES: COc1ccc(CNc2nnc(Cl)c3ccc(Cl)cc23)cc1Cl [(3-Chloro-4-methoxy-benzyl)-(4,7-dichloro-phthalazin-1-yl)-amine]
